Earlier results in patent US20190201327A1, “TOPICAL APPLICATIONS OF WITHAFERIN A” (AMPERSAND BIOPHARMACEUTICALS, INC., priority 2017, published 2019).

Experiments:
[1] = test system: human breast cancer; settings: nude mice
[2] = test system: pancreatic cancer cells xenograft tumor; settings: mouse, in vivo
[3] = test system: human prostate cancer; settings: mouse, in vivo
[4] = test system: mouse melanoma tumor cell; settings: in vivo
[5] = test system: osteoporotic bone; settings: at about 10 mg/kg/day
[6] = test system: human colon cancer; settings: mouse, in vivo
[7] = test system: medullary thyroid cancer cells xenograft tumor; settings: nude mice
[8] = test system: DMBA-induced oral carcinogenesis; settings: hamsters
[9] = test system: Ehrich ascites tumor; settings: administration of WFA

SMILES: CC1=C(CO)C(=O)O[C@@H]([C@@H](C)[C@H]2CC[C@H]3[C@@H]4C[C@H]5O[C@]56[C@@H](O)C=CC(=O)[C@]6(C)[C@H]4CC[C@]23C)C1 [WFA, Withaferin A]
- growth of human breast cancer [1]: inhibited the growth
- growth of pancreatic cancer cells xenograft tumor [2]: inhibited the growth
- growth of human prostate cancer [3]: reduced the growth
- mouse melanoma tumor cell growth [4]: suppress
- effect on osteoporotic bone [5]: exerts an anabolic effect on osteoporotic bone
- growth of human colon cancer [6]: inhibited the growth
- tumor growth and metastasis [7]: significant inhibition of tumor growth and metastasis
- DMBA-induced oral carcinogenesis [8]: Suppressed
- growth of Ehrich ascites tumor [9]: reduced the growth
